The assay relates to LS180. Description: Induction of P-glycoprotein expression in human LS180 cells at 1 uM by Western blot analysis relative to control. Format: cell-based. Background: Immunoblotting shows a protein as a band on a membrane.

Among the data in ChEMBL document CHEMBL3739416, “Discovery of a marine-derived bis-indole alkaloid fascaplysin, as a new class of potent P-glycoprotein inducer and establishment of its structure-activity relationship” (Eur J Med Chem, 2016) are fold change (FC) values, retold here.

In the case of `O=C1c2ccccc2-[n+]2ccc3c([nH]c4ccccc43)c21.[Cl-]` [FASCAPLYSIN CHLORIDE], the fold change (FC) turned out to be 4.
